Experimental data from EP1566447A1, “Glimepiride- and insulin-induced glycosylphosphatidylinositol-specific phospholipase C regulation” (priority 2004, dated 2005).

System: GPI-PLC of hcDIGs from rat adipocytes
Test: adipocyte GPI-PLC assay (cleavage of AChE, TX-114 partitioning)
Assay type: biochemical
Procedure: GPI-PLD (rat serum) was assayed according to "Hari et al. (1997) Biochim. Biophys. Acta 1355: 293-302" by incubation with 10 µl of human placental aP solution (100 U/ml in 10 mM Hepes/NaOH, pH 7.0, 150 mM NaCl) in 100 µl of 200 mM Tris/maleate (pH 7.0) and 1 % Nonidet P-40 for 10 min at 37°C and subsequent termination of the reaction by addition of 0.4 ml of ice-cold stop buffer (10 mM Hepes/NaOH, pH 7.0, 150 mM NaCl, 0.1 mM MgCl2 and 0.01 mM zinc acetate). GPI-PLC (T. brucei) was assayed as described in "Mensa-Wilmot et al. (1995) Methods Enzymol. […]
Pelleted hc/IcDIGs (10-50 µg protein) or (G)PI-PLC reaction mixtures (0.5 ml) were separated into amphiphilic and hydrophilic proteins using partitioning between TX-114-enriched and depleted phases according to "Bordier, C., (1981) J. Biol, Chem. 272: 2542-2550" by suspending in 1 ml of ice-cold TX-114 (1 %), 25 mM Tris/HCl (pH 7.4), 144 mM NaCl or mixing with 0.5 ml of ice-cold TX-114 (2 %), respectively. […] After re-extraction of the lower TX-114-enriched phase, aliquots of the pooled upper TX-114-depleted phase were measured for 5'-Nuc, aP and AChE activity or precipitated (15 % polyethylene glycol 4000) for SDS-PAGE analysis. […]
Fig. 2: Potency of GPI-2350. […] The lipolytic activity was calculated as % of the control reaction in the absence of GPI-2350 (set at 100 %). […]

## CCCCCCCCCCCCP(=O)(O)O[C@H]1[C@H](O)[C@@H](O)[C@H](O)[C@@H](O)[C@@H]1F [GPI-1793, 2-deoxy-2-fluoro-scyllo-inositol-1-O-dodecyl-phosphonic acid]
  inhibition % at 1 mM: 42 ± 5%
